IC50 data for one compound are collected here from patent US4943573A, “Imidazo[4,5-b]quinolinyloxyalkanoic acid amides with enhanced water solubility” (Bristol-Myers Squibb Company, priority 1989, dated 1990).

Protein sequences, listed by entry. Tags and fused reporters are not part of them. Lines headed by an entry give the natural chain unless they say otherwise; changes in a name come on top.
UniProt Q14432: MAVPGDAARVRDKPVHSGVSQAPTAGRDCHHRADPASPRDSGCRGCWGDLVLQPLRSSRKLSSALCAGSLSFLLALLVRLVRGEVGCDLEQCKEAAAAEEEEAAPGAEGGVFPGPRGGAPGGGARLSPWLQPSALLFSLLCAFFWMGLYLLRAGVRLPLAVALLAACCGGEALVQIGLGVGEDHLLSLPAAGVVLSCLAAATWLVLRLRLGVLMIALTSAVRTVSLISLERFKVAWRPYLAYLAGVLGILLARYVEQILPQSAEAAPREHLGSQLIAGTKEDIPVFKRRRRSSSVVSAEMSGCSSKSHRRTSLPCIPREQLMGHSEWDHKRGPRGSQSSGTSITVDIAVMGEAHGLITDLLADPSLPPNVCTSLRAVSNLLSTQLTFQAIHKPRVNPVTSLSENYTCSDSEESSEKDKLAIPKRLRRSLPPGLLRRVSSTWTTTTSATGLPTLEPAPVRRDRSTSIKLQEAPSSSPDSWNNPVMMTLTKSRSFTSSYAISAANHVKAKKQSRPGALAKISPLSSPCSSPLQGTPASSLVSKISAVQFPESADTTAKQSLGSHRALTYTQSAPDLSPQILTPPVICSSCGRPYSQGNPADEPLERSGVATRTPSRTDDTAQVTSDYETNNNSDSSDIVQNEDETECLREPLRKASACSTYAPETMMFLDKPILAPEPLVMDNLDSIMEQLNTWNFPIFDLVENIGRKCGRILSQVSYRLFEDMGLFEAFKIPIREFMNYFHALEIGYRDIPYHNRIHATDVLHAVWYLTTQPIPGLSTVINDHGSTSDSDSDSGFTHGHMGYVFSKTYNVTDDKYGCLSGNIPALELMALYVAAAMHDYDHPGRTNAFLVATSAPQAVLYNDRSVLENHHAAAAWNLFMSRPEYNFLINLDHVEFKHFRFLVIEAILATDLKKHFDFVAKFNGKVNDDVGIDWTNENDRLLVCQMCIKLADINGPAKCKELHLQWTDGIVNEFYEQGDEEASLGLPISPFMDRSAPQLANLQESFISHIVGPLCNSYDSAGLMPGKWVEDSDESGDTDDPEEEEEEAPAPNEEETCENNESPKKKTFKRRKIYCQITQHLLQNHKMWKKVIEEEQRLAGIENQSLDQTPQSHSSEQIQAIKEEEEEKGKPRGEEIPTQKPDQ

The experiment addresses T1, cyclic AMP phosphodiesterase (PDE) enzyme obtained from human platelets (Homo sapiens, UniProt Q14432).
T1 construct: phosphodiesterase (PDE) enzyme obtained from human platelets; from tissue; host or cells: human platelets
Kind of experiment: inhibition of cyclic AMP phosphodiesterase. Format: biochemical. The method, then:
This assay is carried out essentially as described by Thompson, et al., Methods in Enzymology, 38, […] (1974). Briefly, tritium labeled cyclic adenosine monophosphate (cAMP) is incubated with a phosphodiesterase (PDE) enzyme obtained from human platelets which converts a portion of the cAMP to 5'AMP in culture tubes. This reaction is terminated by submerging the tubes in a boiling water bath after which they are placed on ice and an aliquot of snake venom is added to each tube. This, during a second incubation, converts the 5'AMP to adenosine. Ion exchange resin is added to bind the remaining cyclic AMP. The tubes are centrifuged to sediment the resin and a portion of the clear supernatent (which contains radioactive adenosine) is counted in a liquid scintillation counter. The cAMP phosphodiesterase inhibition activity of a test agent is determined by pre-incubating the PDE enzyme preparation with the test agent. Dose response values are obtained and activity of the test agent reported as the molar (M) concentration of the test agent inhibition 50% of the PDE activity (IC50 s).

On to `Cn1c(=O)c2[nH]cnc2n(C)c1=O` [Theophylline, reference compound], for which the concentration for half-maximal inhibition (IC50) – broadly, the concentration that inhibits the measured activity by half – was 100 µM.
